This test addresses pfDHOD (Plasmodium falciparum (isolate 3D7), UniProt Q08210). Briefly: DHOD enzyme inhibition, colorimetric DCIP reduction or direct orotic acid assay. In kind it is biochemical. The procedure:
Reactions are initiated by addition of enzyme to a final concentration in the range of about 5 nM to about 50 nM while maintaining the temperature of a circulating water bath at 25° C.
Assay solutions were prepared as discussed above, except that DCIP is not present and the solution is depleted of oxygen by the inclusion of an oxidase/reductase system, such as, 0.1 mg/ml of glucose oxidase, 0.02 mg/ml catalase and 50 mM glucose. The data obtained was fitted to equation 1, to determine the IC50 values of the representative compounds.

Chains of the proteins cited; added tags and fusions are not shown. Residues count along the entry.
UniProt Q08210, 24-569 limits assumed: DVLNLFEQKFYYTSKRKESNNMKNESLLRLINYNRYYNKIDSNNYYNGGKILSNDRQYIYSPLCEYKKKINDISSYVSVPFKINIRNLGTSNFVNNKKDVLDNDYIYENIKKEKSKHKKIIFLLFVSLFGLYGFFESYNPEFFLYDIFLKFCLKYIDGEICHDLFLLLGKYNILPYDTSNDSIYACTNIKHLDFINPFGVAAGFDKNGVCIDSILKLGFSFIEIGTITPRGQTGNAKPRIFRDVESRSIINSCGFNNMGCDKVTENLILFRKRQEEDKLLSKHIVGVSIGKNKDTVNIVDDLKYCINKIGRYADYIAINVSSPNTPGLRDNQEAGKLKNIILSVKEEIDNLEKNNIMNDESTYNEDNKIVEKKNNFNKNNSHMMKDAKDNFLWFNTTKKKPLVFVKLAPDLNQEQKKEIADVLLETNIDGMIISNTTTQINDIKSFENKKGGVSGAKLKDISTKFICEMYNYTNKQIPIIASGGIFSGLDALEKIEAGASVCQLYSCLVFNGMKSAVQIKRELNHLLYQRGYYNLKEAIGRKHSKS

Each structure is given as a SMILES string.

These results are taken from patent US9238653B2, “Antimalarial agents that are inhibitors of dihydroorotate dehydrogenase” (BOARD OF REGENTS, THE UNIVERSITY OF TEXAS SYSTEM, priority 2009, dated 2016).

On to `Cc1cc(Nc2ccc(S(F)(F)(F)(F)F)cc2)n2ccnc2n1`, for which the IC50 stood at 200 nM.

Usually IC50 stands for the concentration that gives 50% inhibition.
